The structures appear in SMILES notation.

Sequences of proteins named here, by UniProt entry; tags and fusion partners are left off. Residues count along the entry.
UniProt P03951, 388-625 limits assumed: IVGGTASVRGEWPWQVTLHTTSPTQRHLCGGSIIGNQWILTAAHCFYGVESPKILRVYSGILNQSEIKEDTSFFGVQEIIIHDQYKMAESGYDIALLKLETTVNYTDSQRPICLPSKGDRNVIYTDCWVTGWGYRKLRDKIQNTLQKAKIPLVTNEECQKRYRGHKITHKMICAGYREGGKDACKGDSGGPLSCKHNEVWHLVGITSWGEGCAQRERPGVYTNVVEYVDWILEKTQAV
UniProt P03951, 19-387 partner limits assumed: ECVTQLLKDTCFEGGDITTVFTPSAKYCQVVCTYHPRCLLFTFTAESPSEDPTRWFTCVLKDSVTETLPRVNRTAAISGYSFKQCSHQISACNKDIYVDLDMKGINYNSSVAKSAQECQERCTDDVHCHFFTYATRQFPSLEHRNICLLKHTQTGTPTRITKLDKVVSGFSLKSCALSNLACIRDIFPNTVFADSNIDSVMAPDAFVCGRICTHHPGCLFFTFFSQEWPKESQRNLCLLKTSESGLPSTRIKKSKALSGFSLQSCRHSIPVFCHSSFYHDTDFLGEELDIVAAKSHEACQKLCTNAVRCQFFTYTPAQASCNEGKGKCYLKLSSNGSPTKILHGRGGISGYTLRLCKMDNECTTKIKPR

The target in one data set is human factor XIa (Homo sapiens, UniProt P03951). In words: Screening test of enzyme inhibitory activity on hFXIa. The settings on record: read-out: hFXIa IC50; substrate S-2366/S-2306, 37° C. 10 minutes, absorbance 405 nm, pH 7.4. On the procedure:
1. Screening Test of Enzyme Inhibitory Activity on hFXIa (Human Factor XIa)
(§1) Purpose of the Experiment:
Detection of the inhibitory activity of the compounds of the present disclosure on human factor XIa
1) Experimental buffer pH 7.4
100 mM Tris-HCl (Sigma, catalog number: T2663, batch number: SLBG2775)
200 mM NaCl (Sigma, catalog number: 13423, batch number: SZBB2360V)
2) Enzymes and Substrates
Enzyme, Human Factor XIa (Human Factor XIa, Abcam, Cat #ab62411): Total amount: 50 μg. Dissolved with experimental buffer and packed separately.
Substrate S-2366 (DiaPharma, catalog number: S821090): 25 mg
3) Instruments and Consumables
SpectraMax 340PC Multifunctional Microplate Reader (Molecular Devices)
384-well black transparent reaction plate (Corning Cata #3712)
Echo Liquid Workstation (Labcyte)
Echo 384-well polypropylene compound plate (Labcyte-P-05525) was used.
Echo 384 Shallow Pore Polypropylene Compound plate (Labcyte-LP-0200, 2.5-12 μL) was used.
Multidrop automatic dispenser (Thermo Scientific)
Multidrop Consumables (Thermo Scientific-24073290) […]
7) The reaction plate was placed in SpectraMax 340PC and incubated at 37° C. for 10 minutes, and the absorbance was detected at 405 nm.
8) Data were analyzed using GraphPad Prism 5.0
% Inhibition rate=100%×[1−(sample reading-low signal average value)/(high signal average value-low signal average value)]
IC50 was analyzed using 4-factor linear regression: […]

For a further data set, the system named is human plasma. In words: Determination of aPTT (activated partial thromboplastin time) in human plasma in vitro. The settings on record: coagulation time.
Source text: 2. Determination of aPTT (Activated Partial Thromboplastin Time) in Human Plasma In Vitro
as §1
Detection of the anticoagulant effect of the compounds of the present disclosure on human plasma in vitro
1) Coagulation quality control plasma: produced by TECO, Germany, batch number: 093B-J186A
2) aPTT test solution: produced by TECO, Germany, batch number: 20002745; CaCl2): produced by TECO, Germany, batch number: 031N-J073A; DMSO: Sangon Bioengineering (Shanghai) Co., Ltd., batch number: BB02BA0001
3) Instrument: Germany Meichuang MC-4000 blood coagulation instrument
1) Sample solution preparation: 10 mM compound stock solution was prepared with DMSO, and then serially diluted with DMSO as follows: […], 2500, 625, 156.25, 39.06, 9.76, 2.44 μM; then series of concentrations were diluted with tris(hydroxymethylaminomethane) buffer (containing 5% Tween 80) 10 times for use, and the drug to plasma volume ratio was 1:9 during detection. […]
4) Test detection: According to the instructions of the kit, the sample solution to be tested or the reference solution were added into the 37° C. preheated colorimetric cup, preheated at 37° C. for 2 min, aPTT reagent was added, incubated at 37° C. for 3 min, 0.02 M CaCl2 (preheated at 37° C.) was added, and the coagulation time was recorded.

Data set [1] can be described thus: In vivo pharmacokinetic evaluation in rats. The settings on record: male SD rats. On the procedure:
3. In Vivo Pharmacokinetic Evaluation in Rats
as §1
Detection of pharmacokinetic parameters of the compounds of the present disclosure in rats.
1) Experimental drug: compound 6-1;
2) Experimental animals: 4 male SD rats aged 7-9 weeks were randomly divided into 2 groups with 2 rats in each group;
3) Drug preparation: an appropriate amount of drug was weighed, and dissolved in a mixed solvent of DMAC:slolutol:water=10:10:80, and two kinds of solution 0.2 mg/mL and 0.5 mg/mL were prepared;
Animals in group 1 were given the drug at a single dose of 0.5 mg/kg at a concentration of 0.2 mg/mL by tail vein injection, and animals in group 2 were given compound at a dose of 3 mg/kg at a concentration of 0.5 mg/mL by gavage. Plasma samples were collected from animals at 0.0833 (tail vein injection group only), 0.25, 0.5, 1, 2, 4, 6, 8 and 24 hours after administration. The LC-MS/MS method was used to determine the drug concentration in the plasma samples, and the kinetic parameters of the tested drugs were obtained as shown in Table 3: […]

Data set [2] is described as follows: In vivo pharmacokinetic evaluation in cynomolgus monkeys. The conditions noted are these: male cynomolgus monkeys, compound 6-1 (hydrochloride). On the procedure:
4. In Vivo Pharmacokinetic Evaluation in Cynomolgus Monkeys
as §1
Detection of pharmacokinetic parameters of the compounds of the present disclosure in cynomolgus monkeys
Experimental drug: compound 6-1 (hydrochloride);
Experimental animals: 4 male cynomolgus monkeys were randomly divided into 2 groups, 2 in each group;
Drug preparation: an appropriate amount of drug was weighed, and dissolved in a mixed solvent of DMAC:slolutol:water=10:10:80, and two kinds of solution 1 mg/mL and 2 mg/mL were prepared;
Animals in group 1 were given the drug at a single dose of 1 mg/kg at a concentration of 1 mg/mL by tail vein injection, and animals in group 2 were given compound at a dose of 10 mg/kg at a concentration of 2 mg/mL by gavage. Plasma samples were collected from animals at 0.0833 (tail vein injection group only), 0.25, 0.5, 1, 2, 4, 6, 8 and 24 hours after administration. The drug concentration in the plasma samples was determined by LC-MS/MS method, and the kinetic parameters of the tested drug were obtained as shown in Table 4: […]

Consider `CC1CCCC(c2coc(-c3c(-n4cc(Cl)nn4)ccc(Cl)c3F)cc2=O)c2cc(ccn2)-c2c(cnn2C(F)F)NC1=O` (single isomer, unassigned) [Compound 5-2], for which the 50% inhibitory concentration (IC50) at human factor XIa was 3.94 nM.
For the compound `[2H]C([2H])([2H])n1ncc2c1-c1ccnc(c1)C(c1coc(-c3cc(Cl)ccc3-n3cc(Cl)nn3)cc1=O)CCC[C@@H](C)C(=O)N2` (stereo partly drawn), the aPTT2x with human plasma is 2.69 µM. Further, in data set [1] (gavage 3 mg/kg), the “Bioavailability F” value is given as 10.8%, the “Curve area AUC” value turned out to be 5.105 µM·h and the “Peak time Tmax” value amounted to 15 min. Besides, in data set [1] (tail vein injection 0.5 mg/kg), the “Clearance rate Cl” value was determined as 1.84 mL/min/kg, the “Curve area AUC” value was 7.929 µM·h, the “Distribution volume Vd” value worked out at 0.11 L/kg and the “Half-life T1/2” value was determined as 58.3 min. Further, the C0 in data set [1] (read-out: Initial concentration C0, tail vein injection 0.5 mg/kg) is 16.1 µM. Besides, in data set [1] (read-out: Peak concentration Cmax, gavage 3 mg/kg), the Cmax came out at 3.75 µM. Further, in data set [2] (gavage 10 mg/kg), the “Curve area AUC” value was found to be 11.953 µM·h and the “Peak time Tmax” value came to 180 min. Further, in data set [2] (tail vein injection 1 mg/kg), the “Curve area AUC” value was determined as 3.25 µM·h and the “Distribution volume Vd” value was found to be 0.619 L/kg. Further, the C0 in data set [2] (read-out: Initial concentration C0, tail vein injection 1 mg/kg) was 4.53 µM. For the same compound, in data set [2] (read-out: Peak concentration Cmax, gavage 10 mg/kg), the Cmax turned out to be 2.23 µM.
Take `CC1CCCC(c2coc(-c3c(-n4cc(Cl)nn4)ccc(Cl)c3F)cc2=O)c2cc(ccn2)-c2c(cnn2C(F)F)NC1=O` (single isomer, unassigned) [Compound 5-1]: on human factor XIa, the IC50 came out at 9.56 nM.

These data come from patent US20220281868A1, “MACROCYCLIC DERIVATIVES AS FACTOR XIA INHIBITORS” (MEDSHINE DISCOVERY INC., priority 2019, published 2022).
